Some results are limits rather than exact numbers.

Chains of the proteins cited; added tags and fusions are not shown. Residues count along the entry.
UniProt O42275, 24-633: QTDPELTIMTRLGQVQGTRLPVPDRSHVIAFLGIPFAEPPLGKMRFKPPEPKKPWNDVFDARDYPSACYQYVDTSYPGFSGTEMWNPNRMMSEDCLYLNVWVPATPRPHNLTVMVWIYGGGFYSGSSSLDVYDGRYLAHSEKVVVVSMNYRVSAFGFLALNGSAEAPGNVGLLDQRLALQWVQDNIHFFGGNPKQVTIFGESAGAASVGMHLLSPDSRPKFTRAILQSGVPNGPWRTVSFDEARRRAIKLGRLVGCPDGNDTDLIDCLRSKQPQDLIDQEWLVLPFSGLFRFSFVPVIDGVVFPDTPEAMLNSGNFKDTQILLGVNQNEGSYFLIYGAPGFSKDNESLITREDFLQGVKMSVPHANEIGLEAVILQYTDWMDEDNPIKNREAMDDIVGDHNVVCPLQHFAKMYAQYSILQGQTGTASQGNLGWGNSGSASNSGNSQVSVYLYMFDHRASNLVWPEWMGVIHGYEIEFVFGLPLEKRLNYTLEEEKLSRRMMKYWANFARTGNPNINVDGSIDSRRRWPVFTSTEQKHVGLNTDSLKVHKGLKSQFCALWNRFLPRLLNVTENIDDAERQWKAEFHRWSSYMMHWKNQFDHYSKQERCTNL
UniProt P81908, whole entry: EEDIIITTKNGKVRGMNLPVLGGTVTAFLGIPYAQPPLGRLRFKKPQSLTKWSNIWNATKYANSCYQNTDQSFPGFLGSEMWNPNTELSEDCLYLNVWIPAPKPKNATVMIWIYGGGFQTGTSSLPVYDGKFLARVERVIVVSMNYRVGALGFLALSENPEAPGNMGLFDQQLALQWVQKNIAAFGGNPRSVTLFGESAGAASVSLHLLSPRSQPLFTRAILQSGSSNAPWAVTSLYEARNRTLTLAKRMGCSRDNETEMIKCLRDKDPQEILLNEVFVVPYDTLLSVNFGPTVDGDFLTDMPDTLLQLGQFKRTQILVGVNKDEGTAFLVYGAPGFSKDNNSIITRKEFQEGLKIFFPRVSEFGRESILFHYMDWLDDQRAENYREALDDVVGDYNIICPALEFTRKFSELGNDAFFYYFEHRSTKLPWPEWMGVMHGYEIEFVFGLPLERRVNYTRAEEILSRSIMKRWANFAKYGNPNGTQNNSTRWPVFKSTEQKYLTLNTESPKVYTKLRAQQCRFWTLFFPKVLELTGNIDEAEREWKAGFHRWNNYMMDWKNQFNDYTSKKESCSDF

We go through three compounds from publication PMC9330042, “Synthesis and Biological Studies of Novel Aminophosphonates and Their Metal Carbonyl Complexes (Fe, Ru)” (International Journal of Molecular Sciences, 2022).

The target in test [1] is electric eel AChE (eeAChE) (Electrophorus electricus, UniProt O42275). Description: biochemical.
Test [2] concerns the target BuChE (from equine serum) (Equus caballus, UniProt P81908). Description: biochemical.

In the case of `CCOP(=O)(Cc1ccccc1CN)OCC` [8a], the figures for the IC50 in test [1] and in test [2] were 1.215 ± 0.006 µM and greater than 1000 µM, respectively.

For the compound `CCOP(=O)(Cc1ccc(CN)cc1)OCC` [8c], the results for the IC50 in test [1] and in test [2] were greater than 1000 µM and 363 ± 29 µM, respectively.

Turning to `CCOP(=O)(Cc1cccc(CN)c1)OCC` [8b], the 50% inhibitory concentration (IC50) in test [1] and in test [2] was greater than 1000 µM throughout.
